Values of other authors in US20120149888A1, “SYNTHESIS OF ARA-2'-O-METHYL-NUCLEOSIDES, CORRESPONDING PHOSPHORAMIDITES AND OLIGONUCLEOTIDES INCORPORATING NOVEL MODIFICATIONS FOR BIOLOGICAL APPLICATION IN THERAPEUCTICS, DIAGNOSTICS, G- TETRAD FORMING OLIGONUCLEOTIDES AND APTAMERS” (priority 2009, published 2012).

Settings: polarographically, aprotic conditions, in the presence of alpha-lipoic acid

2,T-anhydrouridine
index of potential carcinogenicity tg alpha: 0.260
